Results: patent US20260108546A1 (ELI LILLY AND COMPANY, priority 2024, published 2026)

The chains behind the UniProt entries cited, without tags or fusion partners. Residues count along the entry.
UniProt P48546, 22-466 limits assumed: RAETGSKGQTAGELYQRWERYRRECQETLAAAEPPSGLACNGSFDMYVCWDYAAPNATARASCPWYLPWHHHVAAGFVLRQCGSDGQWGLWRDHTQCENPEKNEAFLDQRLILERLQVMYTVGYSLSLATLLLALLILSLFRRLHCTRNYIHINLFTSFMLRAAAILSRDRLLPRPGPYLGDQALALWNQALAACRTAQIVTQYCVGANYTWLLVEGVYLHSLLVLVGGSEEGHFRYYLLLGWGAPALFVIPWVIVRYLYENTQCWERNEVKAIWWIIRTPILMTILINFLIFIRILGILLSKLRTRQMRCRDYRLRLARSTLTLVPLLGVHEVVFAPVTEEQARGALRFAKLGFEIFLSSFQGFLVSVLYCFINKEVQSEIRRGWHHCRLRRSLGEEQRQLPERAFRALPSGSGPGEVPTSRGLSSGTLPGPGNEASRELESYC

Target: hGIP-R (Homo sapiens, UniProt P48546)
Assay: Functional hGIP-R Assay (cAMP formation, HTRF)
Settings: cAMP efficacy; percent of maximal response to GIP(1-42)OH; 37° C., 0.1% bovine casein; arithmetic mean ± SEM
Experimental: Functional activity was determined using CAMP formation in HEK-293 clonal cell lines expressing hGIP-R. hGIP-R receptor expressing cells were treated with compound (20 point concentration-response curve in DMSO, 2-fold Labcyte Echo direct dilution, 384 well plate Corning Cat #3570) in DMEM (Gibco Cat #31053) supplemented with 1× GlutaMAX™ (Gibco Cat #35050), 0.1% bovine casein (Sigma C4765-10ML), 250 μM IBMX (3-Isobutyl-1-methylxanthine, Acros Cat #228420010) and 20 mM HEPES (Gibco Cat #15630) in a 20 μL assay volume (final DMSO concentration was 1%). After a 30 min incubation at 37° C., the resulting increase in intracellular cAMP was quantitatively determined using the Revvity CAMP Dynamic 2 HTRF Assay Kit (62AM4PEJ). Briefly, cAMP levels within the cell were detected by adding the cAMP-d2 conjugate in cell lysis buffer (10 μL) followed by the antibody anti-cAMP-Eu^3+-Cryptate, also in cell lysis buffer (10 μL). The resulting competitive assay was incubated for at least 60 min at RT, then detected using a BMG Labtech PHERAstar FSX instrument with excitation at 320 nm and emission at 665 nm and 620 nm. PHERAstar units (emission at 665 nm/620 nm*10,000) are inversely proportional to the amount of cAMP present and were converted to nM cAMP per well using a CAMP standard curve. […]

`CC(C)(Cn1cc(C(F)(F)F)cn1)NC(=O)[C@@H](Cc1cnc2ncccn12)NC(=O)[C@H]1C[C@@H]1c1ccc(-c2cnc3nc(C(F)(F)F)cn3c2)cc1` was tested, and the “Human GIP-R Emax, %” value was 91.6 ± 0.83%.
